Test results as given in ChEMBL document CHEMBL4808217, “Design, Synthesis, and Characterization of 4-Aminoquinazolines as Potent Inhibitors of the G Protein-Coupled Receptor Kinase 6 (GRK6) for the Treatment of Multiple Myeloma” (J Med Chem, 2021).

The chains behind the UniProt entries cited, without tags or fusion partners.
UniProt P43250, whole entry, looked up: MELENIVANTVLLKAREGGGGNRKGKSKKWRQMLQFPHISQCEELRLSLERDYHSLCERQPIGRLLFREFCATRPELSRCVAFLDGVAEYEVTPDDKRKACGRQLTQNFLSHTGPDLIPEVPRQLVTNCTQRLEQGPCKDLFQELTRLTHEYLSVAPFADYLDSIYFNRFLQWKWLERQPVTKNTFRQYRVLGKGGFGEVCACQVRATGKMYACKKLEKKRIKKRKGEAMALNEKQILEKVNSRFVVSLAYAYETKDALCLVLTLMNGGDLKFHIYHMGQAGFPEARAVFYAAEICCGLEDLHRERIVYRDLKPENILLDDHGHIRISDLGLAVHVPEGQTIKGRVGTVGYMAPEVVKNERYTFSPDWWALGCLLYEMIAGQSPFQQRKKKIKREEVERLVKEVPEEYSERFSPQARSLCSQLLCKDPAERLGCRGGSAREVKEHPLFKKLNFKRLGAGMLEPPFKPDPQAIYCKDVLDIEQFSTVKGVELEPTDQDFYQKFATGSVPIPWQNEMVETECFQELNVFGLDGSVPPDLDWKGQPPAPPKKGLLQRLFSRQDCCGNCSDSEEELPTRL

Target: G protein-coupled receptor kinase 6 (Homo sapiens, UniProt P43250)
Settings: KMS-11, dose 5.0 µM, time 2.5 hrs

| T1/2 | Structure (SMILES) |
| --- | --- |
| 25 h | CCc1cc(Nc2nc(NCc3ccc(Cl)cc3OC)nc3cccc(OC)c23)n[nH]1 |
| < 1 h | CCc1cc(Nc2nc(N[C@@H](C)c3ccc(F)cn3)nc3cccc(C)c23)n[nH]1 |
| 2 h | CCc1cc(Nc2nc(NCc3ccc(Cl)cc3OC)nc3cccc(C)c23)n[nH]1 |
